Assay results published in paper PMC8500838.

Target: biotinylated AviTagged PPP1R15A^583–621 F592A;R595E (human) (UniProt O75807)

G-actin (actin purified from rabbit muscle) (from UniProt P68135 1-377) (natural protein)
fold decrease in catalytic efficiency (kcat/Km) of eIF2α^P dephosphorylation by PP1A^7–300–PPP1R15A^553–621-MBP F592A;R595E with G-actin, against the wild type: 50 fold
